Structures are written as SMILES. The list shows a part of the results, in another mix than the full data. Calls of active or inactive are those of the source.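 The calls were made as follows: active = activation above the all-compound mean plus 3 SD, ignoring values outside control-based bounds (cut at about 4.8% in these data); inactive = the rest.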

The assay can be described thus: apparent activators from fluorescence artefacts, no enzyme – biochemical, fluorescence intensity, high throughput, artefact control for kallikrein-7 zymogen activator project (AID 686952).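 Also: value is the 4 h activation minus the activation read at time zero.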 As to conditions: EDANS-DABCYL substrate fluorescence interference, 4 h, at 7 µM, hits give high values, solvent 0%, active enzyme control 100%.
In the case of `Nc1cccc2ccc([As](=O)(O)O)cc12`, the activation was active: 23.4%.

(Values after PubChem BioAssay AID686952 (The Scripps Research Institute Molecular Screening Center, 2013).)
